Test results published in PubChem BioAssay AID602261 (Sanford-Burnham Center for Chemical Genomics, 2012).
The list shows a part of the results, in another mix than the full data. Some salts or complexes appear as unconnected parts, following the source record. Active and inactive are the calls of the source.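 Rule for the calls: active = compounds whose normalised, plate-corrected inhibition of enzyme fluorescence in the single-dose primary screen is 50% or more; inactive = the rest.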

By UniProt entry, the sequences of proteins in these tests, tags left out.
UniProt P49327, whole entry: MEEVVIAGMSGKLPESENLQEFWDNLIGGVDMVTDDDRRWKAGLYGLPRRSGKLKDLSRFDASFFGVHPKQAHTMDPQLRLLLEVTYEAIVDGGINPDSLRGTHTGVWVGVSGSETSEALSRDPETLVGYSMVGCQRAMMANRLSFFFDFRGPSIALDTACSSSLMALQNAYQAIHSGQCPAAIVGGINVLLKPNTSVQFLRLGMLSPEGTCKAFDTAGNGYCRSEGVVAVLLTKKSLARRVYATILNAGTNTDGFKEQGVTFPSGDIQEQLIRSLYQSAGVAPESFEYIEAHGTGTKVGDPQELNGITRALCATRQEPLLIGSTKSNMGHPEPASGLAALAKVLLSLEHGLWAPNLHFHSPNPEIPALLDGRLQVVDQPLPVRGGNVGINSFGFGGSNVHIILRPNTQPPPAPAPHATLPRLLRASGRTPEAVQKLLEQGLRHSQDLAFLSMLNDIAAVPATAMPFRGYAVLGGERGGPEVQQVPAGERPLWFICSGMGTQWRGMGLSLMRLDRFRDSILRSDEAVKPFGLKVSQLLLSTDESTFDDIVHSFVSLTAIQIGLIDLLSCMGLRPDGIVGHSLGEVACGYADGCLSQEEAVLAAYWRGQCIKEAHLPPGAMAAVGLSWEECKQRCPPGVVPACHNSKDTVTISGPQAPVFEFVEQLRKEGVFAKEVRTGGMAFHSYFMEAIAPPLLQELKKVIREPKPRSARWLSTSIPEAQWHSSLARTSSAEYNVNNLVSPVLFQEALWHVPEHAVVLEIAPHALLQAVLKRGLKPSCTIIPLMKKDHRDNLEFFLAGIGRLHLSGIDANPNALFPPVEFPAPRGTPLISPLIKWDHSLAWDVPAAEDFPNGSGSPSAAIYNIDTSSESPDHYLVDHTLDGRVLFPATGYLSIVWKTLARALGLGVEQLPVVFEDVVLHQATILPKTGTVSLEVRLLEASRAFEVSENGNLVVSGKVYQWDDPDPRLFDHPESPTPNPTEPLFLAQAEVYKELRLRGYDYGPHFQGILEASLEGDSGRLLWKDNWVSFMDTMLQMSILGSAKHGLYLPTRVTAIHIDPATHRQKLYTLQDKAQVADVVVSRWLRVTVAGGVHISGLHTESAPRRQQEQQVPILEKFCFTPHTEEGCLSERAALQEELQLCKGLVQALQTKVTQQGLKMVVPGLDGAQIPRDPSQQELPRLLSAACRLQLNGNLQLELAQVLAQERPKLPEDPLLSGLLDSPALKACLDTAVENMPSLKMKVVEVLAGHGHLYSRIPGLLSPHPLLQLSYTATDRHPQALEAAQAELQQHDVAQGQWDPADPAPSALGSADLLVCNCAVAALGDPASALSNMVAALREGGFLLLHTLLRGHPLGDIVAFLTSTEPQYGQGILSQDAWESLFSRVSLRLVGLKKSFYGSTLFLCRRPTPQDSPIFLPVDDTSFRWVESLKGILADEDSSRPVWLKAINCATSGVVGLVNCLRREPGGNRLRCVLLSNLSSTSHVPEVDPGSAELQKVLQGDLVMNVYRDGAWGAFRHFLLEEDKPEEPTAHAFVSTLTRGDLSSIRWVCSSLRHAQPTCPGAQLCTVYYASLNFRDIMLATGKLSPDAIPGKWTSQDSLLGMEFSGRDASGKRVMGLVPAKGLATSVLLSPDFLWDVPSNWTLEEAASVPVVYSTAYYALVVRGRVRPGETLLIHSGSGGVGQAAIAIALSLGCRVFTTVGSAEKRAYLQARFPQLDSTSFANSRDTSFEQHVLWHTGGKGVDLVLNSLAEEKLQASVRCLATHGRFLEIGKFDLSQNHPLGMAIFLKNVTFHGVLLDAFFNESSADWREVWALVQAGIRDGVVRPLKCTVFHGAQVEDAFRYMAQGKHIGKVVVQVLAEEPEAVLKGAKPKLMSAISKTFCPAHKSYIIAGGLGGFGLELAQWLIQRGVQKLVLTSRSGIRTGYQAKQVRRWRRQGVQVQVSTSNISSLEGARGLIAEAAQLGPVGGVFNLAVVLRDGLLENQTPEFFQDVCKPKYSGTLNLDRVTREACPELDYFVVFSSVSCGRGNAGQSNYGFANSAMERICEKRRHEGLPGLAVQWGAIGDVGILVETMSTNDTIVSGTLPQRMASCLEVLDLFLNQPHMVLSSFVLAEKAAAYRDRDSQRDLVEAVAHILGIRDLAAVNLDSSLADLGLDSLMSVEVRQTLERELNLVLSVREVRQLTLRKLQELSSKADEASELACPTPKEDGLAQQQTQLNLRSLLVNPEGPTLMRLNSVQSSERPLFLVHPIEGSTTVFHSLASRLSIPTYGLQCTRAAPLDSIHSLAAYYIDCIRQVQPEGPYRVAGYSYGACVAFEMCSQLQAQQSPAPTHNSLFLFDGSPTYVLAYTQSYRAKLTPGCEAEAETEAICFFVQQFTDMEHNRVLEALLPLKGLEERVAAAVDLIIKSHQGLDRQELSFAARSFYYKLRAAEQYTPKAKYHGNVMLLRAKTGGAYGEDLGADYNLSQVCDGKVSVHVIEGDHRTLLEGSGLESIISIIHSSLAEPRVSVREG

What follows are compounds tested against Fatty acid synthase (Homo sapiens) (UniProt P49327) (assay: FAS thioesterase domain inhibitors, primary screen, biochemical, fluorescence intensity, uHTS (AID 602261;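 note: 0% = DMSO with enzyme and 100% = substrate without enzyme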)). Settings: recombinant FAS-TE, OMFH fluorogenic substrate, fluorescence endpoint; at 15 µM; hits give high values.

Row | SMILES | inhibition
1 | COc1ccccc1-c1ccccn1.O=[N+]([O-])c1cc([N+](=O)[O-])c(O)c([N+](=O)[O-])c1 | inactive: 0%
2 | CCN(CC)CCCOC(=O)C(O)(c1ccccc1)c1ccccc1 | inactive: -5.5%
3 | COc1ccccc1OP(C)(=O)Nc1ccc(C)cc1 (centres undefined) | inactive: -6.6%
4 | Cc1ccc(NP(C)(=O)Oc2ccccc2)c(C)c1 (centres undefined) | inactive: -9.8%
5 | CCOC(=O)c1ccc(NP(C)(=O)Oc2ccccc2)cc1 (centres undefined) | inactive: -7.1%
6 | Cc1cc(C)cc(OP(C)(N)=O)c1 (centres undefined) | inactive: -2.5%
7 | COc1ccccc1OP(C)(=O)Nc1cc(Cl)ccc1C (centres undefined) | inactive: -2.7%
8 | COc1ccc(OP(C)(=O)Nc2cccc(F)c2)cc1 (centres undefined) | inactive: -6.3%
9 | O=[N+]([O-])c1cc([N+](=O)[O-])c(Nc2cccnc2)c([N+](=O)[O-])c1 | inactive: -4.2%
10 | O=[N+]([O-])c1ccc2c(c1)C=Nc1ccccc1O2 | inactive: 9.3%
11 | CC(C)(C)c1ccc(OP(C)(=O)Nc2ccc(SC(F)(F)F)cc2)cc1 (centres undefined) | inactive: 18.7%
12 | Cc1cccc(C)c1OP(C)(N)=O (centres undefined) | inactive: -3.8%
13 | CP(=S)(Nn1cnnc1)Oc1ccccc1 (centres undefined) | inactive: -6.2%
14 | CP(=O)(Nc1ccccc1Br)Oc1ccccc1 (centres undefined) | inactive: -5.1%
15 | COc1ccccc1OP(C)(=O)Nc1ccccc1 (centres undefined) | inactive: -10.7%
16 | O=[N+]([O-])c1cc([N+](=O)[O-])c(O)c([N+](=O)[O-])c1.c1ccc(Oc2ccncc2)cc1 | inactive: -0.2%
17 | CCOC(=O)c1ccc(NP(C)(=O)Oc2ccc(OC)cc2)cc1 (centres undefined) | inactive: -12%
18 | CCOP(C)(=S)SCC(=O)NC(C)C(=O)O (centres undefined) | inactive: -4.5%
19 | CP(=O)(Nc1ccccn1)Oc1ccc(Cl)cc1 (centres undefined) | inactive: -5.5%
20 | CP(=O)(Nc1ccc(SC(F)(F)F)cc1)Oc1ccc(Cl)cc1 (centres undefined) | active: 58.1%
21 | Cc1cccc(C)c1OP(C)(=O)Nc1ccc(SC(F)(F)F)cc1 (centres undefined) | inactive: 5.3%
22 | Cc1ccc(Nc2c([N+](=O)[O-])cc([N+](=O)[O-])cc2[N+](=O)[O-])cc1 | inactive: 8%
23 | CP(=O)(Oc1ccccc1)OC(c1ccccc1)C(F)(F)F (centres undefined) | inactive: 1.7%
24 | CP(=O)(NC(=O)Nc1ccccc1)Oc1ccccc1 (centres undefined) | inactive: -9.7%
25 | CCc1ccc(OP(C)(=O)N2CCN(c3ccc([N+](=O)[O-])cc3)CC2)cc1 (centres undefined) | inactive: 41.4%

Row | SMILES | inhibition
26 | Cc1cc(C)cc(OP(C)(=O)Nc2ccc(SC(F)(F)F)cc2)c1 (centres undefined) | inactive: 23.4%
27 | O=[N+]([O-])c1cc([N+](=O)[O-])c(-c2cnn(-c3ccccc3)c2)c([N+](=O)[O-])c1 | inactive: -19.5%
28 | Cc1nc2ccc3ccccc3c2s1.O=[N+]([O-])c1cc([N+](=O)[O-])c(O)c([N+](=O)[O-])c1 | inactive: 3.8%
29 | O=[N+]([O-])c1cc([N+](=O)[O-])c(-n2nnc3ccccc32)c([N+](=O)[O-])c1 | inactive: -9.7%
30 | CN(Cc1cccnc1)C(=O)COc1ccc(Cl)c(Cl)c1.O=[N+]([O-])c1cc([N+](=O)[O-])c(O)c([N+](=O)[O-])c1 | inactive: 2.3%
31 | CN1CCCCC1COC(=O)C1(O)c2ccccc2CCc2ccccc21 (centres undefined) | inactive: -4.3%
32 | COc1ccccc1OP(C)(=O)Nc1c(C)cccc1C (centres undefined) | inactive: -4.8%
33 | COc1ccc(-c2ccccn2)cc1.O=[N+]([O-])c1cc([N+](=O)[O-])c(O)c([N+](=O)[O-])c1 | inactive: 1.8%
34 | CCCOc1ccc(NP(C)(=O)Oc2ccc(Cl)cc2)cc1 (centres undefined) | inactive: 7.9%
35 | CP(=O)(Nc1ccc(SC(F)(F)F)cc1)Oc1ccccc1 (centres undefined) | inactive: 3%
36 | CC1=C2N=C(C=C3N=C(C(C)=C4[N-][C@@](C)([C@@H]5N=C1[C@](C)(CCC(=O)NC[C@@H](C)OP(=O)([O-])O[C@H]1[C@@H](O)[C@@H](n6cnc7cc(C)c(C)cc76)O[C@@H]1CO)[C@H]5CC(N)=O)[C@@](C)(CC(N)=O)[C@@H]4CCC(N)=O)[C@@](C)(CC(N)=O)[C@@H]3CCC(N)=O)C(C)(C)[C@@H]2CCC(N)=O.[C-]#N.[Co+3] | inactive: -0.6%
37 | O=[N+]([O-])c1cc([N+](=O)[O-])c(Nc2nnnn2CCO)c([N+](=O)[O-])c1 | inactive: -3.1%
38 | CCOC(=O)C(CC)C1=NC(C)(C)Cc2ccccc21.O=[N+]([O-])c1cc([N+](=O)[O-])c(O)c([N+](=O)[O-])c1 (centres undefined) | inactive: 0.5%
39 | CC1=NCCc2c1[nH]c1ccccc21.O=[N+]([O-])c1cc([N+](=O)[O-])c(O)c([N+](=O)[O-])c1 | inactive: -8.3%
40 | O=C(O)c1cccc(Nc2c([N+](=O)[O-])cc([N+](=O)[O-])cc2[N+](=O)[O-])c1 | inactive: 0.2%
41 | Cc1ccc(C)c(NP(C)(=O)Oc2ccccc2)c1 (centres undefined) | inactive: -16.7%
42 | Cc1cc(C)cc(OP(C)(=O)Nc2ccccn2)c1 (centres undefined) | inactive: -7.1%
43 | CP(=O)(Nc1cccc(Br)c1)Oc1ccccc1 (centres undefined) | inactive: 1.7%
44 | COc1ccccc1OP(C)(=O)Nc1cccc(Br)c1 (centres undefined) | inactive: -4.3%
45 | CCOC(=O)c1ccc(NP(C)(=O)Oc2cc(C)cc(C)c2)cc1 (centres undefined) | inactive: -4%
46 | Cc1cc(C)cc(OP(C)(=O)Nc2ccc(C)cc2C)c1 (centres undefined) | inactive: -3.9%
47 | O=C(OC1CN2CCC1CC2)c1ccc([N+](=O)[O-])cc1 (centres undefined) | inactive: -0.3%
48 | O=C(OCCN1CCN(CCOCc2ccccc2)CC1)C(O)(c1ccccc1)c1ccccc1 | inactive: -7.6%
49 | COc1ccc2c(c1O)-c1c(O)c(OC)cc3c1[C@H](C2)[N+](C)(C)CC3.O=[N+]([O-])c1cc([N+](=O)[O-])c([O-])c([N+](=O)[O-])c1[O-] | inactive: -10.2%
50 | O=[N+]([O-])c1cc([N+](=O)[O-])c(Nc2ccc(Cl)cc2)c([N+](=O)[O-])c1 | inactive: 7.6%

Row | SMILES | inhibition
51 | CP(=O)(Nc1ccccc1F)Oc1ccccc1 (centres undefined) | inactive: -6.5%
52 | CC(C)c1ccc(OP(C)(=O)Nc2ccc(SC(F)(F)F)cc2)cc1 (centres undefined) | inactive: 28.7%
53 | Cc1c([N+](=O)[O-])cc([N+](=O)[O-])c(Br)c1[N+](=O)[O-] | inactive: 0.6%
54 | CCN(CC)CCCOC(=O)C(O)(c1ccccc1)C1CCCCC1 (centres undefined) | inactive: 0.1%
55 | CP(=O)(Nc1ccccc1)Oc1ccc(F)cc1 (centres undefined) | inactive: -5.4%
56 | CCCCCOc1ccc(NP(C)(=O)Oc2ccc(Cl)cc2Cl)cc1 (centres undefined) | inactive: 33.5%
57 | O=[N+]([O-])c1cc([N+](=O)[O-])c(OC2CCCCC2O)c([N+](=O)[O-])c1 (centres undefined) | inactive: -1.5%
58 | CCN(CC)CCCNc1ccccc1[N+](=O)[O-].O=[N+]([O-])c1cc([N+](=O)[O-])c(O)c([N+](=O)[O-])c1 | inactive: 0.6%
59 | CCOC(=O)c1ccc(NP(C)(=O)Oc2ccc(F)cc2)cc1 (centres undefined) | inactive: -8.6%
60 | COc1ccc(OP(C)(=O)Nc2ccc(SC(F)(F)F)cc2)cc1 (centres undefined) | inactive: 14.9%
61 | O=[N+]([O-])c1ccc(OP2(=O)COCCO2)cc1 (centres undefined) | inactive: -2.2%
62 | O=[N+]([O-])c1cc([N+](=O)[O-])c(NCC2CCS(=O)(=O)C2)c([N+](=O)[O-])c1 (centres undefined) | inactive: -1.2%
63 | Cc1cc(-c2cccc3ccccc23)c(C)cn1.O=[N+]([O-])c1cc([N+](=O)[O-])c(O)c([N+](=O)[O-])c1 | inactive: 10.6%
64 | Cc1c(C(c2ccc3c(c2)OCO3)c2c(C)n(C)n(-c3ccccc3)c2=O)c(=O)n(-c2ccccc2)n1C.O=[N+]([O-])c1cc([N+](=O)[O-])c(O)c([N+](=O)[O-])c1 | inactive: -6.7%
65 | COc1ccc(OP(C)(=O)Nc2cccc(Br)c2)cc1 (centres undefined) | inactive: 2.9%
66 | CN(C)CCOC(=O)C(O)(c1ccccc1)C1CCCCC1 (centres undefined) | inactive: -5.6%
67 | COc1ccc(NP(C)(=O)Oc2ccccc2OC)cc1 (centres undefined) | inactive: -2.3%
68 | CP(=O)(Nc1ccc2c(c1)OCCO2)Oc1ccccc1 (centres undefined) | inactive: -1.9%
69 | Cc1ccccc1NP(C)(=O)Nc1ccccc1C | inactive: -6.9%
70 | O=[N+]([O-])c1cc([N+](=O)[O-])c(C(F)(F)F)c([N+](=O)[O-])c1O | inactive: 19.2%
71 | CP(=O)(Nc1ccc(SC(F)(F)F)cc1)Oc1ccc(F)cc1 (centres undefined) | inactive: 16.6%
72 | CCOP(C)(=S)SCC(=O)NC(C)(CC)C(=O)O (centres undefined) | inactive: -3.6%
73 | COc1ccccc1OP(C)(=O)Nc1ccccc1Br (centres undefined) | inactive: -2.7%
74 | CC(C)(C)c1ccc(OP(C)(=O)O)cc1 | inactive: -6.3%
75 | CP(=O)(Nc1ccc(Cl)cc1)Oc1ccc(F)cc1 (centres undefined) | inactive: 0.9%

Row | SMILES | inhibition
76 | CN(C)C(=O)c1c([N+](=O)[O-])cc([N+](=O)[O-])cc1[N+](=O)[O-] | inactive: -5.7%
77 | CCN(CC)CC(O)COC(=O)C(O)(c1ccccc1)C1CCCCC1 (centres undefined) | inactive: -1.1%
78 | COc1ccc(OP(C)(=O)Nc2ccc(Br)cc2)cc1 (centres undefined) | inactive: -2.1%
79 | COc1ccccc1OP(C)(=O)Nc1c(C)n(C)n(-c2ccccc2)c1=O (centres undefined) | inactive: -15%
80 | O=C(OCCCN1CCCC1)C(O)(c1ccccc1)C1CCCCC1 (centres undefined) | inactive: -5%
81 | CP(=O)(Oc1ccccc1)N1CCOC1=O (centres undefined) | inactive: -7.2%
82 | CCc1ccc(OP(C)(=O)Nc2cccnc2)cc1 (centres undefined) | inactive: -5.7%
83 | CCOC(=O)c1ccc(NP(C)(=O)Oc2ccc(Cl)cc2)cc1 (centres undefined) | inactive: 3.1%
84 | CP(=O)(OC12CC3CC(CC(C3)C1)C2)OC12CC3CC(CC(C3)C1)C2 | inactive: 7%
85 | CCCCCCCCCCCCCCCC1C[N+](C)(C)CCOP(C)(=O)O1 (centres undefined) | inactive: -45.9%
86 | CP(=O)(Nc1ccc(Cl)cc1Cl)Oc1ccccc1 (centres undefined) | inactive: 2.4%
87 | CP(=O)(OCCOc1ccccc1)OCCOc1ccccc1 | inactive: -6.8%
88 | O=C1C(O)=C([N+](=O)[O-])C(=O)C(O)=C1[N+](=O)[O-] | inactive: -12.8%
89 | Cc1cc(C)cc(OP(C)(=O)Nc2cccc(C(F)(F)F)c2)c1 (centres undefined) | inactive: 4.1%
90 | COc1ccccc1OP(C)(=O)Nc1ccc(C)c(C)c1 (centres undefined) | inactive: -6%
91 | COc1ccc(OP(C)(=O)Nc2ccccc2Br)cc1 (centres undefined) | inactive: -7.7%
92 | Cc1c(NP(C)(=O)Oc2ccc(C(C)C)cc2)c(=O)n(-c2ccccc2)n1C (centres undefined) | inactive: -6.1%
93 | O=[N+]([O-])c1cc([N+](=O)[O-])c(Nc2ccccn2)c([N+](=O)[O-])c1 | inactive: -4.9%
94 | CP(=O)(Nc1ccccn1)Oc1ccccc1 (centres undefined) | inactive: -16.1%
95 | COc1ccccc1OP(C)(=O)Nc1ccc(C)cc1C (centres undefined) | inactive: -7.4%
96 | CCc1ccc(OP(C)(=O)O)cc1 | inactive: -9.9%
97 | COc1ccccc1OP(C)(=O)Nc1ccc(Br)cc1 (centres undefined) | inactive: -3%
98 | COc1ccc(OP(C)(=O)Nc2ccccn2)cc1 (centres undefined) | inactive: -4.5%
99 | CN(C)CCOC(=O)C(O)(c1ccccc1)C1CCCC1 (centres undefined) | inactive: -6.2%
